According to ChEMBL document CHEMBL1123748, “Opioid agonist and antagonist activities of monofunctional nitrogen mustard analogues of beta-chlornaltrexamine” (1987):

Key:
Mus musculus = species: Mus musculus; assay: Partial Opioid agonist activity was determined in Mouse vas deferens (MVD); Transient agonism at 200 nm; settings: filed as agonist
Cavia porcellus = species: Cavia porcellus; assay: Opioid agonist activity was determined as potency ratio relative to morphine in Guinea pig ileum (GPI); Transient agonism at 20 nm; settings: filed as agonist

**Q.** Oc1ccc2c3c1O[C@H]1[C@H](N(CCCl)CCCl)CC[C@@]4(O)C(C2)N(CC2CC2)CCC314 (some centres not stated) was tested. Which IC20 (Mus musculus) did it give?
**A.** Transient agonism at 200 nM

**Q.** What about the Potency ratio (Cavia porcellus) of the same compound?
**A.** Transient agonism at 20 nM
